US10604526B2, “Chemokine receptor modulators and uses thereof” (RAPT THERAPEUTICS, INC., priority 2016, dated 2020)

Amino acid sequences for entries named in this document (tags omitted).
UniProt P51679, whole entry: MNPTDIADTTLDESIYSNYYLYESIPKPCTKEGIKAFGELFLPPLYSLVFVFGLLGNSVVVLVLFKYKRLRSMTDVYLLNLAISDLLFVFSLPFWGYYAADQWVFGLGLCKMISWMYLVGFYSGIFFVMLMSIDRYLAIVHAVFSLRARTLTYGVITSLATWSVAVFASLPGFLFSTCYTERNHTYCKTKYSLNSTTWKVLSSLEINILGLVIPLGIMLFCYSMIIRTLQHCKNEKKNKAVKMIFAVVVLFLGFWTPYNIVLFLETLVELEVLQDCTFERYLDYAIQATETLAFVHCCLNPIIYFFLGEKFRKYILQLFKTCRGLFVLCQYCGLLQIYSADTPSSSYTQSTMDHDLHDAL

Target: hCCR4 (Homo sapiens, UniProt P51679)
Assay: Calcium flux assay
Details: read-out: Potency (IC50); Chem5-hCCR4 cells, CCL22 at EC80 of 1.5 nM, FLIPR Calcium 6 dye
Description: Calcium Flux Assay. Compounds were evaluated in a calcium flux assay substantially performed as follows. Chem5-hCCR4 cells (EMD Millipore, Hayward, Calif.; HTS009C) were cultured under standard conditions and frozen in aliquots of 10×10^6 cells/mL. The day prior to compound testing, a vial was rapidly thawed and pipetted into 20 mL media (DMEM+10% FBS+1% Pen-Strep+1% L-glutamine). Cells were harvested by centrifugation and re-suspended in fresh culture medium. 25 μL of cell suspension was seeded into 384-well plates (Corning, Tewksbury, Mass.; CellBind with black wall/clear bottom). The plates were centrifuged at 300 g for 10 seconds and incubated overnight at 37° C. and 5% CO2. The day of compound testing, media was removed from the plates and 25 μL serum free media was added to each well. […]
Assay plates and working solution of CCL22 were transferred to the FlexStation plate reader (Molecular Devices) at 37° C. for 5 min of equilibration. Fluorescence recordings at 485 excitation/525 emission were performed at 2.5 second intervals. At t=16 seconds, 12.5 μL of CCL22 solution was added to each well and reads continued for 30 seconds at 2.5 second intervals. The minimum fluorescence (Fmin) was calculated by averaging the reads prior to ligand addition and the change in fluorescence (ΔF) was calculated by subtracting the Fmin from the average of the reads following ligand addition. […]

Compound: Cc1nn([C@H](C)c2ccc(Cl)cc2Cl)c2nc(N3CC([C@@H]4CCCN(CCCC(=O)O)C4)C3)ncc12
- IC50: > 0.5 µM
